From patent publication US10766889B2, “Aryl-2,2′-tandem bisthiazole compound and preparation method and use thereof” (SHANGHAI INSTITUTE OF MATERIA MEDICA, CHINESE ACADEMY OF …, priority 2016, dated 2020)
Values joined by “and” are separate entries in the source; they are usually repeats but may differ in a detail not shown here. Identical values can stand only once. Like-named read-outs stand apart in the source and are kept apart here.

Protein sequences, listed by entry. Tags and fused reporters are not part of them.
UniProt Q13547, whole entry: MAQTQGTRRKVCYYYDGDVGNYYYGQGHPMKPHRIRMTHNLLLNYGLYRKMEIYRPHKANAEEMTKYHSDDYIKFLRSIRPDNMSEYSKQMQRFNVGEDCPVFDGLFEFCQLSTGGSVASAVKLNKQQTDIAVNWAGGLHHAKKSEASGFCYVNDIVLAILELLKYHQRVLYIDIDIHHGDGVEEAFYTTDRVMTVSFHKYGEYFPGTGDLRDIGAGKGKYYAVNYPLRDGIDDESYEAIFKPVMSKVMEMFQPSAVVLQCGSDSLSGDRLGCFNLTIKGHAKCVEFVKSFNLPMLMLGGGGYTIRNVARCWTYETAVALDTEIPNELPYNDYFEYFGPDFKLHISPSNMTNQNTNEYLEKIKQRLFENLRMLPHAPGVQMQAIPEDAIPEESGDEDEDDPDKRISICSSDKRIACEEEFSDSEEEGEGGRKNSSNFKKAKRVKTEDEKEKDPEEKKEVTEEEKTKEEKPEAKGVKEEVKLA

Molecular target: T1, human HDAC1 (Homo sapiens, UniProt Q13547)
T1 construct: made in house
Test: Inhibition activity test of histone deacetylase 1 (fluorescence, Ac-Lys-Tyr-Lys(Ac)-AMC substrate)
Assay type: biochemical

[1] = mean of 3 experiments, read-out: IC50 HDAC1

SMILES	IC50 [1]	IC50 (IC50 HDAC1, mean of 3 experiments) [nM]
C[C@@H](NC(=O)c1nc(-c2ncc(-c3ccccc3)s2)sc1C1CC1)c1ccc(C(=O)NO)cc1 [Compound H11]	43 ± 10.3 nM	–
O=C(CCNC(=O)c1nc(-c2nccs2)sc1C1CC1)NO [bexanostat]	–	95.1 ± 48.5
C[C@H](NC(=O)c1nc(-c2ncc(-c3ccccc3)s2)sc1C1CC1)c1ccc(C(=O)NO)cc1 [Compound H08]	2 to 3 nM and 2.53 nM	–
